## Measured affinities in a library of Ab-14 heavy chain variants

Reference: Engelhart et al. 2022, doi:10.1038/s41597-022-01779-4. File: FLAb, binding data.

The target is the same throughout: PDVDLGDISGINAS, from the HR2 region of SARS-CoV-2 spike.

Each scFv is VH, three GGGGS repeats, VL, as in the parent Ab-14, and differs from it in the CDRs of the heavy chain only.
VH: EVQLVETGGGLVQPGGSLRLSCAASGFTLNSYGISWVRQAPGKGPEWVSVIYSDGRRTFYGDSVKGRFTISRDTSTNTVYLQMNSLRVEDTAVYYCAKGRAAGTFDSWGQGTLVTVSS
VL: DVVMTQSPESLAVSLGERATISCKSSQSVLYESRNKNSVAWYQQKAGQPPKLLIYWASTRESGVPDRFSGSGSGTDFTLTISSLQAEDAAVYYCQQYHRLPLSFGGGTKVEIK

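The parent was found by panning a naive human phage display library on the peptide. In library AAYL49, one, two or three CDR residues were substituted; doubles and triples were drawn at random. Affinity was read by AlphaSeq, a pooled yeast mating assay with surface-displayed partners. Binding brings cells together so that they mate, and sequencing counts the barcode pairs among the diploids. Read counts were normalised to the haploid input and turned into Kd by a linear fit to BCL2-family pairs of known affinity, for each replicate. The assay was run in three technical replicates.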

The parent's heavy chain CDRs are GFTLNSYGIS, VIYSDGRRTFYGDSVK, GRAAGTFDS; each variant's own CDRs replace them letter for letter. Numbers give log10(Kd / nM), so 0 is 1 nM and 3 is 1 µM. Smaller is tighter. "nd" means that the variant was in the library but no mating with the target was seen in that replicate; the authors take this as a sign of poor binding, and no number exists. For reference, the parent read 0.65 as the reference entry and 4.11 (one replicate of three) as a member of this library. Three control strains display no target. For library AAYL49, 15% of the pairings with them gave a signal, with a median of 4.06 and one signal in twenty below 2.83, so weak values seen in few replicates may be background. For each scFv, signals with the empty controls are counted beside the result, with their mean in brackets.

| # | CDR-H1 | CDR-H2 | CDR-H3 | replicates, log10 nM | empty controls |
|---|---|---|---|---|---|
| 1 | GFTLRSYGIS | VIYSDGRRFFEGDSVK | GRAAGTFDS | nd nd nd | 0 of 9 |
| 2 | GFTLNSYGIS | RIYSDGRRTFYGDSVK | GRAAGTFDS | 4.69 nd nd | 0 of 9 |
| 3 | GFTLNSYGIS | VIYSDGRRTFYGLSVK | GRAAGTFDS | 3.00 nd 2.29 | 0 of 9 |
| 4 | GFTLNSNGIS | VIYFDGRRTFYGDSVK | GRAAGTFDK | nd nd nd | 0 of 9 |
| 5 | GFTLNSYGIS | VIYSDGRRTMYGDSDN | GRAAGTFDS | nd nd nd | 0 of 9 |
| 6 | DFTLNSYGHS | VIYSDGRRTFYKDSVK | GRAAGTFDS | nd 3.02 nd | 0 of 9 |
| 7 | GFTLNSYGIS | VIYSDARRTFSGDSVK | GRAAGTFDS | nd nd nd | 0 of 9 |
| 8 | GETLNSYGIS | VIYRDGRRTFYGDSVK | GRAAGTFDC | nd nd nd | 0 of 9 |
| 9 | GFTLNSYGIS | VAWSDGRRTFYGDSVK | GRAIGTFDS | nd nd nd | 1 of 9 (4.29) |
| 10 | GFPLNSYGIS | VIYSDGRCTFYGDQVK | GRAAGTFDS | nd nd nd | 0 of 9 |
| 11 | AFTLNSYGIS | VIYSEGRRTFYGDSVK | GRAAGTFDR | nd nd nd | 0 of 9 |
| 12 | QFTLNSYGIS | VIYSDGRRTFYMDSVK | GRACGTFDS | 3.59 3.24 4.11 | 6 of 9 (4.20) |
| 13 | QSWLNSYGIS | VIYSDGRRTFYGDSVK | GRAAGTFDS | 2.53 2.14 1.65 | 0 of 9 |
| 14 | KRTLNSYGIS | VIYHDGRRTFYGDSVK | GRAAGTFDS | 2.98 nd nd | 0 of 9 |
| 15 | GFTLNSYGIS | VIYSDGRRTFYYESVK | GRTAGTFDS | 1.41 1.55 1.39 | 0 of 9 |
| 16 | GFTLNSYGIS | VIYSDSRRTFYGDSVK | GRAAGTFDL | nd nd nd | 0 of 9 |
| 17 | GFTLNSYGIS | VIYSKGRRTFYGDSVK | GRSAGTFDS | nd nd 4.89 | 0 of 9 |
| 18 | GFTLNSYGIN | VIYSVGRRTFYGDSVM | GRAAGTFDS | nd nd nd | 0 of 9 |
| 19 | GQWLNSYGIS | VHYSDGRRTFYGDSVK | GRAAGTFDS | nd nd nd | 0 of 9 |
| 20 | GFTLNSYGIS | VIYSDGRIMFYADSVK | GRAAGTFDS | nd nd 4.65 | 1 of 9 (4.12) |
| 21 | GFTLNSYGIS | VIYSDGRRTFYGDSVK | WTAAGTFRS | 5.63 nd nd | 0 of 9 |
| 22 | GFTINSYGIS | VIYSDGRRTFYGDSVK | GCAAGTFKS | 1.43 1.46 2.53 | 0 of 9 |
| 23 | GFTLNMYGIS | QIYSDGRRTFYGDTVK | GRAAGTFDS | nd nd nd | 0 of 9 |
| 24 | GFTLNSYGIM | VIYSDGRRTFYEDSVK | GRAAGTFDW | 4.80 4.06 4.14 | 8 of 9 (4.68) |
| 25 | GFTLNSYSIS | VIYSDGRRTFYGDSFK | GRAATTFDS | nd nd nd | 0 of 9 |
| 26 | GFTARSYGIS | VIYSDGRRTFYGDSVK | GRAAGWFDS | nd nd 4.39 | 1 of 9 (3.61) |
| 27 | GFTLNSYGGS | VIYTDGRRTFYGDSVK | MRAAGTFDS | nd 3.82 3.58 | 5 of 9 (4.26) |
| 28 | GFTSCSYGIS | VIYSDGRRTFYGFSVK | GRAAGTFDS | nd nd nd | 0 of 9 |
| 29 | GFTLNSYGIQ | VIYSDGRRTGYGDSVK | GRAAGTFDS | nd nd nd | 1 of 9 (1.57) |
| 30 | GFTLNSYGIS | VIPSDGRRTFRGDSVK | VRAAGTFDS | nd 4.64 nd | 6 of 9 (4.50) |
| 31 | GFTLNSYHIS | VIYSRGRRTFYGDSVK | FRAAGTFDS | 4.50 4.21 nd | 3 of 9 (4.32) |
| 32 | GFTLNSYGIS | KTYSDGRRTFYGDAVK | GRAAGTFDS | nd 3.38 5.24 | 3 of 9 (4.72) |
| 33 | GFTLNSVGIS | VIYSDGRRTFYGDSAK | GRAVGTFDS | nd nd nd | 0 of 9 |
| 34 | GFTWNSYGIS | VIYSDGRRNFYGDSVK | GRAAGTADS | 5.10 4.29 nd | 6 of 9 (4.34) |
| 35 | GFTFNSYGIS | VIYSDGRRTFYGDSIK | GRAAWTFDS | nd nd nd | 1 of 9 (1.82) |
| 36 | GFTLNSYGIS | VIYQDGRRTFYGDSVK | GRAAGTFSS | nd nd nd | 0 of 9 |
| 37 | GFTLNSYGIS | VIYSDGRRTFYGDSMK | GRVAGTFDS | nd nd nd | 0 of 9 |
| 38 | GFTLNNYGIS | VIYSDGRRTFYGDMVP | GRAAGTFDS | nd 4.10 nd | 3 of 9 (3.26) |
| 39 | GFSLNSWGIS | VIYSDGRRTFYGDSVK | GRAAGTFDS | 2.09 3.44 nd | 0 of 9 |
| 40 | GFTLNSYGIS | VIYSDGRRTFYGDSVK | GSAPGTFDA | 0.64 1.42 1.30 | 0 of 9 |
| 41 | GFVLNSYGIS | VIYSDGRRTFYGMSVK | GRLAGTFDS | nd 2.42 3.85 | 1 of 9 (3.73) |
| 42 | GFTLNYYGIS | VIYSDGRRTFYIDSVK | GRADGTFDS | nd nd nd | 0 of 9 |
| 43 | GFTLNSYGES | VIYSDGRRTFYGDSVK | FRAAGTFDS | nd nd nd | 0 of 9 |
| 44 | GFTLNSYGIS | VIYSDNRRTFYCDSVK | GRAAGTFDY | nd 4.36 4.65 | 0 of 9 |
| 45 | GFTLNSYGNS | VIYSVGRRTFYSDSVK | GRAAGTFDS | nd nd nd | 0 of 9 |
| 46 | GFTLNSEGIS | IIYSDGRRTHYGDSVK | GRAAGTFDS | nd nd nd | 0 of 9 |
| 47 | GFTLNHYGIS | VIYSDGMRTFYGDTVK | GRAAGTFDS | 0.95 1.08 1.17 | 0 of 9 |

A selection of 4 entries from above:

CDR-H1	CDR-H2	CDR-H3	replicates, log10 nM	empty controls
GFTLNSYGIS	VIYSKGRRTFYGDSVK	GRSAGTFDS	nd nd 4.89	0 of 9
GFTLNSYGNS	VIYSVGRRTFYSDSVK	GRAAGTFDS	nd nd nd	0 of 9
GFTLNSYGIS	KTYSDGRRTFYGDAVK	GRAAGTFDS	nd 3.38 5.24	3 of 9 (4.72)
GFTLNSEGIS	IIYSDGRRTHYGDSVK	GRAAGTFDS	nd nd nd	0 of 9